One molecule from patent EP1200093B1, “USE OF 2-AMINO-4-(4-FLUORONAPHTH-1-YL)-6-ISOPROPYLPYRIMIDINE IN THE TREATMENT OF GI DISORDERS” (priority 1999, dated 2001) can be followed below.

Protein sequences, listed by entry. Tags and fused reporters are not part of them.
UniProt P41595, whole entry: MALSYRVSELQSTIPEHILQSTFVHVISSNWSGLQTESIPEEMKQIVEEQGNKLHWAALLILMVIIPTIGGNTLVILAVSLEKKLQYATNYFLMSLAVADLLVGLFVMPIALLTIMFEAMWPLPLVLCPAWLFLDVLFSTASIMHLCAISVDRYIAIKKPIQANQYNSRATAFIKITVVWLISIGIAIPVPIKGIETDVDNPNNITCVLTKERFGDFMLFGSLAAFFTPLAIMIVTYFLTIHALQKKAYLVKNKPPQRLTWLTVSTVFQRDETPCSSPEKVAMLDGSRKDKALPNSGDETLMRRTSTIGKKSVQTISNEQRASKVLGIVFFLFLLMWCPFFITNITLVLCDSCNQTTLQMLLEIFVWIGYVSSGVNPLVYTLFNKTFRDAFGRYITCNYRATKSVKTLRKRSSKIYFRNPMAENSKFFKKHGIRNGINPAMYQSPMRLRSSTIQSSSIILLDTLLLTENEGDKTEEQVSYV

The target in the experiment is 5-HT receptor in human colon longitudinal muscle (Homo sapiens, UniProt P41595). In words: cell-based.

Turning to `CSc1ccc2c(c1)C(N1CCN(C)CC1)Cc1ccccc1S2` (stereo not shown) [Methiothepin], the Kb was 31.6 nM.
